Values of other authors as cited in article PMC6287576 (International Journal for Parasitology: Drugs and Drug …, 2018).

Molecular target: P. equorum morantel heteromeric receptor made of the ACR-26 and ACR-27 subunits
Conditions: ACR-26/ACR-27 receptor; ref Courtot et al., 2015; cited from earlier work

CC(=O)OCC[N+](C)(C)C [Acetylcholine, Acetylcholine chloride]
EC50: 34.9 ± 1.1 µM
